Amino acid sequences for entries named in this document (tags omitted). A change or cut given only in a name is not applied to a line headed by its entry.
UniProt P56524: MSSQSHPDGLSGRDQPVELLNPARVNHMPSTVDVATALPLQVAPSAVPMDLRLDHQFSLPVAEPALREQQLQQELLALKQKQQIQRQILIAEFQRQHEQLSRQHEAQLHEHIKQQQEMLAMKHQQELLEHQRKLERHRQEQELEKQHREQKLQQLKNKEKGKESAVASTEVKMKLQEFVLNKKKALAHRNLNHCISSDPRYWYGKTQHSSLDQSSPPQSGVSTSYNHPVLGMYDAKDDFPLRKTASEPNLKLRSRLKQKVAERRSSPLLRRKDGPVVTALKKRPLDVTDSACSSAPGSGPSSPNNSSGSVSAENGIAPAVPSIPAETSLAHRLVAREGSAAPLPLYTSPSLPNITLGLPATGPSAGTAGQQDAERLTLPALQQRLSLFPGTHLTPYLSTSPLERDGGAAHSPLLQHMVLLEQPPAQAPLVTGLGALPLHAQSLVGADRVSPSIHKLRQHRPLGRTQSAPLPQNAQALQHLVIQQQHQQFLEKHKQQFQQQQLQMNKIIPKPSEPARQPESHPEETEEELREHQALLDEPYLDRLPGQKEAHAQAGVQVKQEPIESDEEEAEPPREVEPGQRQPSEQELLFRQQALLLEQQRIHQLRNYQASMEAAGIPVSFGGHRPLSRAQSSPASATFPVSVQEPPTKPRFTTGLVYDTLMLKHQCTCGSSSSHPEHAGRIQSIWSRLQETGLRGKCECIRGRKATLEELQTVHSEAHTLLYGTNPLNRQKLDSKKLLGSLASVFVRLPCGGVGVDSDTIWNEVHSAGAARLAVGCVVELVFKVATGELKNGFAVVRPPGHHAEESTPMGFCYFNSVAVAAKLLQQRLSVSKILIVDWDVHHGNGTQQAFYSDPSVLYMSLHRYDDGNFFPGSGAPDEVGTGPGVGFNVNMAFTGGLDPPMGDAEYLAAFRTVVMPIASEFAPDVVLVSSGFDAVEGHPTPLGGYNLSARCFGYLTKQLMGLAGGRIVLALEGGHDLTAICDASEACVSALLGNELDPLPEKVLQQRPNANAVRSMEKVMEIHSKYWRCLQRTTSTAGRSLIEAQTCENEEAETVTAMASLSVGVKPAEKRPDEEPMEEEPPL

According to PMC7614726 (ACS chemical neuroscience, 2020):

Molecular target: HDAC4 (Homo sapiens, UniProt P56524)
Test: biochemical

IC50: 6.2 µM
SMILES: CN1CCc2c(c3ccccc3n2Cc2ccc(C(=O)NO)cc2)C1 [Tubastatin A]
